Earlier results as cited in paper PMC9285861 (Biomacromolecules, 2019).

System: HSA
Conditions: cited from earlier work

human Aβ1–42
share of plasma Aβ bound by HSA: 90%
